Assay results published in patent US20260234166A1, “FUSED RING COMPOUND AND USE THEREOF” (HITGEN INC., priority 2023, published 2026).

Chains of the proteins cited; added tags and fusions are not shown.
UniProt Q96SW2, whole entry: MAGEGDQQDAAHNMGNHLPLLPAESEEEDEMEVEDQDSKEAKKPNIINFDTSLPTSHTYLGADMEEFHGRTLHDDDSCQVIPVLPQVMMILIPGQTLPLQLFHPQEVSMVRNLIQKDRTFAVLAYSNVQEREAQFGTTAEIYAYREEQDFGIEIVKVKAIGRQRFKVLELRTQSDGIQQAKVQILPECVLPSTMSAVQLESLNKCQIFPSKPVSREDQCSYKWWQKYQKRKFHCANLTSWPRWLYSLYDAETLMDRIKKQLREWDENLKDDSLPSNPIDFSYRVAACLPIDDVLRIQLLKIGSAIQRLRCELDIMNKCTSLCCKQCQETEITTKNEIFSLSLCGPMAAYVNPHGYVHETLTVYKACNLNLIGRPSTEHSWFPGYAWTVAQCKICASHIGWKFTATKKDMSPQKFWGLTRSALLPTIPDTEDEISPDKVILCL
UniProt Q16531, whole entry partner: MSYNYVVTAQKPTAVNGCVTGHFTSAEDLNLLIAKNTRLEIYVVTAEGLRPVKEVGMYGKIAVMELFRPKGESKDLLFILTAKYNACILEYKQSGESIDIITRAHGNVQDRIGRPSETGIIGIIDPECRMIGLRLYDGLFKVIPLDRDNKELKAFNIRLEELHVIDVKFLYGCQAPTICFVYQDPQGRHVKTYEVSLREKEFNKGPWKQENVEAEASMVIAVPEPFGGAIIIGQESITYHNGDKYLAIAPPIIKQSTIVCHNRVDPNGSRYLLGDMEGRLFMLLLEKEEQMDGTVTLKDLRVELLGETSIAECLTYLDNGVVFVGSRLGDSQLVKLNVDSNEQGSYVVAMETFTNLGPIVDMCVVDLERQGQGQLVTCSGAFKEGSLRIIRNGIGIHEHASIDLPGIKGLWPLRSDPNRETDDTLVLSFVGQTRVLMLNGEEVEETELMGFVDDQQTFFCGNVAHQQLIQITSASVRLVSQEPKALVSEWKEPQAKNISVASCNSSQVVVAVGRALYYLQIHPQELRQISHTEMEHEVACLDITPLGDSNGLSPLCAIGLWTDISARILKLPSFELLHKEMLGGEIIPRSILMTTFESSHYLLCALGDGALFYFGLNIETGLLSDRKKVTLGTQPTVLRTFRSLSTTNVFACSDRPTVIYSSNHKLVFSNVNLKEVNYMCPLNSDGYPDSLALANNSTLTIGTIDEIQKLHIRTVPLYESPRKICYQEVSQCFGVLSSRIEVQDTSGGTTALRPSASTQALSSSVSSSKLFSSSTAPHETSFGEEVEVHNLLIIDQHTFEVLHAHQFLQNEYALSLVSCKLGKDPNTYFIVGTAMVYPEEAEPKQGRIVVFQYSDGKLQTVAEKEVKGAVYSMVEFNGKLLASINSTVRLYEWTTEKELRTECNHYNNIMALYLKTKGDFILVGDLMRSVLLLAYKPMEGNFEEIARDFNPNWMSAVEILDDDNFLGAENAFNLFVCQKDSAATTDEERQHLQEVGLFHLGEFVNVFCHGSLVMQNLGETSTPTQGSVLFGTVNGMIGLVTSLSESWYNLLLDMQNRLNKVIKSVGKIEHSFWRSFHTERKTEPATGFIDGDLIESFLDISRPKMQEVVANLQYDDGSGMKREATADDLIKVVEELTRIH

What follows are molecules tested against CRBN/DDB1 protein (Homo sapiens, UniProt Q96SW2) (assay: Detection of inhibition of CRBN/DDB1 activity by compounds (FRET)). Conditions: read-out: IC50, inhibition of CRBN/DDB1 protein, 5.0 nM CRBN/DDB1, 0.2 nM Anti-6His-Tb, 50.0 nM FITC-labeled thalidomide analogue, 1.0% DMSO, 25° C.
Procedure: Test Example 1 Detection of Inhibition of CRBN/DDB1 Activity by Compounds (FRET)
Microplate reader (BMG PHERAstar FSX), ECHO (LABCYTE Echo 665), microplate thermostatic oscillator (Hangzhou Ruicheng Instrument Co., Ltd.), disodium hydrogen phosphate (Sigma), sodium dihydrogen phosphate (Sigma), bovine serum albumin (Sigma), Anti-6His-Tb crypate Gold (CISBIO), CRBN/DDB1 protein (HitGen) and 384-well plate (Grenier Bio-one).
The dry powder of the compound was dissolved in DMSO, and the compound was serially diluted using ECHO, and added to a 384-well reaction plate, so that the final concentration of DMSO in the whole reaction system (10.0 μL) was 1.0%, and the same amount of DMSO was added as a control.
20 mM disodium hydrogen phosphate, 20 mM sodium dihydrogen phosphate, 0.08% bovine serum albumin and buffer with pH of 7.0 were used to dilute the CRBN/DDB1 protein to twice the required final concentration (5.0 nM), and 5.0 μL of the diluted CRBN/DDB1 protein was added into the 384-well reaction plate added with compounds, centrifuged at 1000 rpm for 1 min, then placed on a microplate thermostatic oscillator, and pre-incubated at 25° C. and 250 rpm for 15 min. 20 mM disodium hydrogen phosphate, 20 mM sodium dihydrogen phosphate, 0.08% bovine serum albumin and buffer with a pH of 7.0 were used to dilute Anti-6His-Tb crypate Gold and FITC-labeled thalidomide analogues to twice the required final concentration, and the final concentration of Anti-6His-Tb crypate Gold was 0.2 nM, the final concentration of FITC-labeled thalidomide analogues was 50.0 nM, and a mixed solution of Anti-6His-Tb crypate Gold/FITC-labeled thalidomide analogues was obtained. […] After the reaction was completed, the fluorescence signal value (Ex-337 nm Em=520/490 nm) in the 384-well reaction plate was read by the microplate reader. […]
The percentage of residual activity of each concentration was calculated as follows: […]
Then, the dose-effect curve was fitted using GraphPad Prism 6.0 and the IC50 value was calculated accordingly.

Compared with `CN1CCn2c(c(C(=O)N3CC4(CC(=O)NC4=O)C3)c3ccccc32)C1=O`, `Cn1ccn2c(c(C(=O)N3CC4(CC(=O)NC4=O)C3)c3ccccc32)c1=O` is 2.7-fold higher in IC50: 9 nM for the first, 24 nM for the second.

Work on `O=C1CC2(CN(C(=O)c3c4ccccc4n4cc[nH]c(=O)c34)C2)C(=O)N1` yielded an IC50 of 52 nM.
